The values that follow are results of earlier work, collected in patent US20210379148A1, “REGULATING MUSCLE PHYSIOLOGY AND ENERGY METABOLISM USING CRYM” (University Of Maryland, Baltimore, priority 2020, published 2021).

In this series the test system is CRYM mRNA.

As for `CC[C@@]1(O)C(=O)OCc2c1cc1n(c2=O)Cc2cc3c(CN(C)C)c(O)ccc3nc2-1` [Topotecan], the “expression of CRYM mRNA” value was “[Oxaliplatin co-treated with Topotecan] results in increased”.
